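Growth conditions: 96-well plates. Treatment: test compound, 48 hours, 5 concentrations. Analysis: linear interpolation between bracketing concentrations; unreached endpoints set to highest concentration. GI50: concentration for 50% inhibition of growth. TGI is the concentration that stops growth completely.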
Columns and labels:
Experiment in all cases: NCI-60 cell line screen, 48 h
PC-3 prostate = test system: PC-3 prostate
OVCAR-5 ovarian = test system: OVCAR-5 ovarian
LOX IMVI melanoma = test system: LOX IMVI melanoma
COLO 205 colon = test system: COLO 205 colon
CCRF-CEM leukemia = test system: CCRF-CEM leukemia
HOP-62 NSCLC = test system: HOP-62 NSCLC
SNB-75 CNS = test system: SNB-75 CNS
MCF7 breast = test system: MCF7 breast
A549 NSCLC = test system: A549 NSCLC
CAKI-1 renal = test system: CAKI-1 renal
U251 CNS = test system: U251 CNS
MDA-MB-435 = test system: MDA-MB-435
SW-620 colon = test system: SW-620 colon
UO-31 renal = test system: UO-31 renal
HCT-116 colon = test system: HCT-116 colon
HCC-2998 colon = test system: HCC-2998 colon
SK-MEL-28 melanoma = test system: SK-MEL-28 melanoma
HT29 colon = test system: HT29 colon
SNB-19 CNS = test system: SNB-19 CNS
HS 578T breast = test system: HS 578T breast
RXF 393 renal = test system: RXF 393 renal
A498 renal = test system: A498 renal
SK-MEL-5 melanoma = test system: SK-MEL-5 melanoma
T-47D breast = test system: T-47D breast
NCI/ADR-RES ovarian = test system: NCI/ADR-RES ovarian
OVCAR-8 ovarian = test system: OVCAR-8 ovarian
NCI-H23 lung = test system: NCI-H23 lung
K-562 leukemia = test system: K-562 leukemia
MDA-N = test system: MDA-N
HCT-15 colon = test system: HCT-15 colon
MOLT-4 leukemia = test system: MOLT-4 leukemia
TK-10 renal = test system: TK-10 renal
UACC-257 melanoma = test system: UACC-257 melanoma
SR leukemia = test system: SR leukemia
HOP-92 NSCLC = test system: HOP-92 NSCLC
NCI-H522 lung = test system: NCI-H522 lung
HL-60(TB) leukemia = test system: HL-60(TB) leukemia
MALME-3M melanoma = test system: MALME-3M melanoma
786-0 renal = test system: 786-0 renal
M14 melanoma = test system: M14 melanoma
NCI-H226 lung = test system: NCI-H226 lung
OVCAR-4 ovarian = test system: OVCAR-4 ovarian
ACHN renal = test system: ACHN renal
NCI-H460 lung = test system: NCI-H460 lung
RPMI-8226 leukemia = test system: RPMI-8226 leukemia
DU-145 prostate = test system: DU-145 prostate
KM12 colon = test system: KM12 colon
EKVX NSCLC = test system: EKVX NSCLC
SF-268 CNS = test system: SF-268 CNS
MDA-MB-231 breast = test system: MDA-MB-231 breast
IGROV1 ovarian = test system: IGROV1 ovarian
UACC-62 melanoma = test system: UACC-62 melanoma
BT-549 breast = test system: BT-549 breast
SK-MEL-2 melanoma = test system: SK-MEL-2 melanoma
SN12C renal = test system: SN12C renal
NCI-H322M lung = test system: NCI-H322M lung

With `O=C1CCN2CCCC12.O=[N+]([O-])c1cc([N+](=O)[O-])c(O)c([N+](=O)[O-])c1` the GI50 (PC-3 prostate) was > 100 µM, the TGI (PC-3 prostate) was > 100 µM and the GI50 (OVCAR-5 ovarian) was > 100 µM. The TGI (OVCAR-5 ovarian) was > 100 µM, the GI50 (LOX IMVI melanoma) was 97.2 µM and the TGI (LOX IMVI melanoma) was > 100 µM. The GI50 (COLO 205 colon) was > 100 µM, the TGI (COLO 205 colon) was > 100 µM and the GI50 (CCRF-CEM leukemia) was > 100 µM. For the same compound, the TGI (CCRF-CEM leukemia) was > 100 µM, the GI50 (HOP-62 NSCLC) was > 100 µM and the TGI (HOP-62 NSCLC) was > 100 µM. The GI50 (SNB-75 CNS) was > 100 µM, the TGI (SNB-75 CNS) was > 100 µM and the GI50 (MCF7 breast) was > 100 µM. For the same compound, the TGI (MCF7 breast) was > 100 µM, the GI50 (A549 NSCLC) was > 100 µM and the TGI (A549 NSCLC) was > 100 µM. The GI50 (CAKI-1 renal) was > 100 µM, the TGI (CAKI-1 renal) was > 100 µM and the GI50 (U251 CNS) was > 100 µM. The TGI (U251 CNS) was > 100 µM, the GI50 (MDA-MB-435) was 40.6 µM and the TGI (MDA-MB-435) was > 100 µM. The GI50 (SW-620 colon) was > 100 µM, the TGI (SW-620 colon) was > 100 µM and the GI50 (UO-31 renal) was 43.1 µM. For the same compound, the TGI (UO-31 renal) was > 100 µM, the GI50 (HCT-116 colon) was > 100 µM and the TGI (HCT-116 colon) was > 100 µM. For the same compound, the GI50 (HCC-2998 colon) was > 100 µM, the TGI (HCC-2998 colon) was > 100 µM and the GI50 (SK-MEL-28 melanoma) was > 100 µM. For the same compound, the TGI (SK-MEL-28 melanoma) was > 100 µM, the GI50 (HT29 colon) was > 100 µM and the TGI (HT29 colon) was > 100 µM. The GI50 (SNB-19 CNS) was > 100 µM, the TGI (SNB-19 CNS) was > 100 µM and the GI50 (HS 578T breast) was > 100 µM. The TGI (HS 578T breast) was > 100 µM, the GI50 (RXF 393 renal) was > 100 µM and the TGI (RXF 393 renal) was > 100 µM. The GI50 (A498 renal) was > 100 µM, the TGI (A498 renal) was > 100 µM and the GI50 (SK-MEL-5 melanoma) was > 100 µM. The TGI (SK-MEL-5 melanoma) was > 100 µM, the GI50 (T-47D breast) was > 100 µM and the TGI (T-47D breast) was > 100 µM. The GI50 (NCI/ADR-RES ovarian) was > 100 µM, the TGI (NCI/ADR-RES ovarian) was > 100 µM and the GI50 (OVCAR-8 ovarian) was > 100 µM. For the same compound, the TGI (OVCAR-8 ovarian) was > 100 µM, the GI50 (NCI-H23 lung) was > 100 µM and the TGI (NCI-H23 lung) was > 100 µM. The GI50 (K-562 leukemia) was 69.4 µM, the TGI (K-562 leukemia) was > 100 µM and the GI50 (MDA-N) was 62.3 µM. The TGI (MDA-N) was > 100 µM, the GI50 (HCT-15 colon) was > 100 µM and the TGI (HCT-15 colon) was > 100 µM. The GI50 (MOLT-4 leukemia) was > 100 µM, the TGI (MOLT-4 leukemia) was > 100 µM and the GI50 (TK-10 renal) was > 100 µM. The TGI (TK-10 renal) was > 100 µM, the GI50 (UACC-257 melanoma) was 80 µM and the TGI (UACC-257 melanoma) was > 100 µM. The GI50 (SR leukemia) was > 100 µM, the TGI (SR leukemia) was > 100 µM and the GI50 (HOP-92 NSCLC) was 37.3 µM. For the same compound, the TGI (HOP-92 NSCLC) was > 100 µM, the GI50 (NCI-H522 lung) was 64.3 µM and the TGI (NCI-H522 lung) was > 100 µM. The GI50 (HL-60(TB) leukemia) was > 100 µM, the TGI (HL-60(TB) leukemia) was > 100 µM and the GI50 (MALME-3M melanoma) was 85.4 µM. The TGI (MALME-3M melanoma) was > 100 µM, the GI50 (786-0 renal) was > 100 µM and the TGI (786-0 renal) was > 100 µM. The GI50 (M14 melanoma) was 68.7 µM, the TGI (M14 melanoma) was > 100 µM and the GI50 (NCI-H226 lung) was > 100 µM. For the same compound, the TGI (NCI-H226 lung) was > 100 µM, the GI50 (OVCAR-4 ovarian) was > 100 µM and the TGI (OVCAR-4 ovarian) was > 100 µM. For the same compound, the GI50 (ACHN renal) was > 100 µM, the TGI (ACHN renal) was > 100 µM and the GI50 (NCI-H460 lung) was > 100 µM. The TGI (NCI-H460 lung) was > 100 µM, the GI50 (RPMI-8226 leukemia) was > 100 µM and the TGI (RPMI-8226 leukemia) was > 100 µM. The GI50 (DU-145 prostate) was > 100 µM, the TGI (DU-145 prostate) was > 100 µM and the GI50 (KM12 colon) was > 100 µM. The TGI (KM12 colon) was > 100 µM, the GI50 (EKVX NSCLC) was > 100 µM and the TGI (EKVX NSCLC) was > 100 µM. The GI50 (SF-268 CNS) was > 100 µM, the TGI (SF-268 CNS) was > 100 µM and the GI50 (MDA-MB-231 breast) was > 100 µM. The TGI (MDA-MB-231 breast) was > 100 µM, the GI50 (IGROV1 ovarian) was > 100 µM and the TGI (IGROV1 ovarian) was > 100 µM. The GI50 (UACC-62 melanoma) was > 100 µM, the TGI (UACC-62 melanoma) was > 100 µM and the GI50 (BT-549 breast) was > 100 µM. For the same compound, the TGI (BT-549 breast) was > 100 µM, the GI50 (SK-MEL-2 melanoma) was > 100 µM and the TGI (SK-MEL-2 melanoma) was > 100 µM. For the same compound, the GI50 (SN12C renal) was > 100 µM, the TGI (SN12C renal) was > 100 µM and the GI50 (NCI-H322M lung) was > 100 µM. The TGI (NCI-H322M lung) was > 100 µM.

From PubChem BioAssay (NCI)
